Test results as given in PubChem BioAssay (EPA / NIEHS).
Where “and” joins values, the source holds several entries; their conditions need not be identical. Equal values may be shown once. This is a selection; strong and weak results do not stand in their true shares. Records with an inconclusive call do not appear. Some compounds were tested as several samples or in several runs, with calls that do not always agree. Calls of active or inactive are those of the source. Rule for the calls, unless noted: active = hit-call score of the fitted dose curve at least 0.9, where 1 is the maximum; inconclusive = response in the unintended direction; inactive = score below 0.9.

Protein sequences, listed by entry. Tags and fused reporters are not part of them. Lines headed by an entry give the natural chain unless they say otherwise; changes in a name come on top.
UniProt O75469: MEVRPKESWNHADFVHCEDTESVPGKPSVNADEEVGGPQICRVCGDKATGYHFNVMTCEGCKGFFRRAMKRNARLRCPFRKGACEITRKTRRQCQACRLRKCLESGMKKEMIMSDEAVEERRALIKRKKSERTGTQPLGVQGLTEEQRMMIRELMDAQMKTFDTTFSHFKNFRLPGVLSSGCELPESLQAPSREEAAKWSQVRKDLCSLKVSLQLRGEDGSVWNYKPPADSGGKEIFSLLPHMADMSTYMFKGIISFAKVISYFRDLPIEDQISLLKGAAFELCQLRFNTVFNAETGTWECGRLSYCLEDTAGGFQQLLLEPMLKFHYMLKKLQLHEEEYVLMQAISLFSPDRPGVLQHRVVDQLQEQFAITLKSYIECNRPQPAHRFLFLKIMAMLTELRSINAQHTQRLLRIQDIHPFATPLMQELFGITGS
UniProt Q92753: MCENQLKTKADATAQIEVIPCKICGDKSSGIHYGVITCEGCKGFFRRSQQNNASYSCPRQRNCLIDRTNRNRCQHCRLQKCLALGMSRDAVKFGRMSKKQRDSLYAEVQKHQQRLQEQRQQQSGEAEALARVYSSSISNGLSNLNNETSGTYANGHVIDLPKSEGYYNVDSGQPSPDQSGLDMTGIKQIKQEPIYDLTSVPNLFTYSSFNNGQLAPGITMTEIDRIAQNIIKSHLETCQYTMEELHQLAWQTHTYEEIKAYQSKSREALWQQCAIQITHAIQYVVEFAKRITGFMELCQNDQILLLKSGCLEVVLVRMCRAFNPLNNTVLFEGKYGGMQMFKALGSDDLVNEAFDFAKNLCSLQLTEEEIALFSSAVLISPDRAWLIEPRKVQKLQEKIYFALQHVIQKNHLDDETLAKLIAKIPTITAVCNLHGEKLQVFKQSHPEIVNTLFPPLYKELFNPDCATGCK
UniProt P51449: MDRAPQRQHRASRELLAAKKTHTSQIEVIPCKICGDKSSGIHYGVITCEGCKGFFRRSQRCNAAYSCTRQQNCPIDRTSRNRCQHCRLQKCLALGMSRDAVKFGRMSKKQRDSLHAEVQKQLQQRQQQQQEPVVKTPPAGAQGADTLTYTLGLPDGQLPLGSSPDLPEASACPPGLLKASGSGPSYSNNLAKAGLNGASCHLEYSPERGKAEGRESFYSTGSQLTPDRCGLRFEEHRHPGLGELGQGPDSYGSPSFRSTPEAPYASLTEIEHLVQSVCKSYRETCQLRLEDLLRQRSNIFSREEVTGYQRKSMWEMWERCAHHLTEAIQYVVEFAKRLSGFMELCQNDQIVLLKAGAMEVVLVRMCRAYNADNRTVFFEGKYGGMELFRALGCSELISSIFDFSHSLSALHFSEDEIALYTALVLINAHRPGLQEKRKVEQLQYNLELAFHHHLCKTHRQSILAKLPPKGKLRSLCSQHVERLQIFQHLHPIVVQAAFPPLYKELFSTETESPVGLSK
UniProt P19793: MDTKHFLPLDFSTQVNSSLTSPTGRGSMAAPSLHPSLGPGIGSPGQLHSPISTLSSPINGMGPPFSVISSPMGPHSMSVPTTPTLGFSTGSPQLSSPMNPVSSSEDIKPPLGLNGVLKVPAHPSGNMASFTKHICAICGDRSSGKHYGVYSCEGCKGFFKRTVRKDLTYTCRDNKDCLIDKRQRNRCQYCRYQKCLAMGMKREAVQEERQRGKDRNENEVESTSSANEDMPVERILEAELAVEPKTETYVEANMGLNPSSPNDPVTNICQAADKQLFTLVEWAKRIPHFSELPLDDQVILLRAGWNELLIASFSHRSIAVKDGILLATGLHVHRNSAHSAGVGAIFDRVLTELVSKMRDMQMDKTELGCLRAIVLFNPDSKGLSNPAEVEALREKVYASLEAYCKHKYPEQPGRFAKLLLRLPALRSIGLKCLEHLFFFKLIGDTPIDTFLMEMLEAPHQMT
UniProt P10827: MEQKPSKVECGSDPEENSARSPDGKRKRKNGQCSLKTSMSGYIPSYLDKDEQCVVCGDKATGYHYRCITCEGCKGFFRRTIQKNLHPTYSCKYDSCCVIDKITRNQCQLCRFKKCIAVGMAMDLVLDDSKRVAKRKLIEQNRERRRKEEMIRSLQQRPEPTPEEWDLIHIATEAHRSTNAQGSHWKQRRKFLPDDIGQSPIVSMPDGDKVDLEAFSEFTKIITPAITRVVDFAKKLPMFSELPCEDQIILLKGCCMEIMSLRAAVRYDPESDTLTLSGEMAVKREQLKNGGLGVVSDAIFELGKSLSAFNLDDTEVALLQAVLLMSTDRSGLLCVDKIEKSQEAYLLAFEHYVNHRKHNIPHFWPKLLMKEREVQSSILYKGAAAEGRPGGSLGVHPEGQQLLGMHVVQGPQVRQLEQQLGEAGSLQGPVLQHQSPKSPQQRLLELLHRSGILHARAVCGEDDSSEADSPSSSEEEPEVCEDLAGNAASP
UniProt P13631, whole entry, looked up: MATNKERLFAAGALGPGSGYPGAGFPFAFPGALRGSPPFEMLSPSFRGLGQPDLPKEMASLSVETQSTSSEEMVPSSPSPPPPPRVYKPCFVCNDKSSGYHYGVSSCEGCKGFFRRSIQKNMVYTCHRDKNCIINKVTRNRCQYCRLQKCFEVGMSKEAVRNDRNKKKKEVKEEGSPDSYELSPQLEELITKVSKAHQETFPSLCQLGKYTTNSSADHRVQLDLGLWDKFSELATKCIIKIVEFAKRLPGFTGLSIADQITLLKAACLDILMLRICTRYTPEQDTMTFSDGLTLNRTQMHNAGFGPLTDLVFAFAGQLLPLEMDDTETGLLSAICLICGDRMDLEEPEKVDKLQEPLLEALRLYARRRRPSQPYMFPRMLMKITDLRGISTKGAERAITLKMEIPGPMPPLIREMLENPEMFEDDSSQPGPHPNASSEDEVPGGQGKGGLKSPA
UniProt P16581: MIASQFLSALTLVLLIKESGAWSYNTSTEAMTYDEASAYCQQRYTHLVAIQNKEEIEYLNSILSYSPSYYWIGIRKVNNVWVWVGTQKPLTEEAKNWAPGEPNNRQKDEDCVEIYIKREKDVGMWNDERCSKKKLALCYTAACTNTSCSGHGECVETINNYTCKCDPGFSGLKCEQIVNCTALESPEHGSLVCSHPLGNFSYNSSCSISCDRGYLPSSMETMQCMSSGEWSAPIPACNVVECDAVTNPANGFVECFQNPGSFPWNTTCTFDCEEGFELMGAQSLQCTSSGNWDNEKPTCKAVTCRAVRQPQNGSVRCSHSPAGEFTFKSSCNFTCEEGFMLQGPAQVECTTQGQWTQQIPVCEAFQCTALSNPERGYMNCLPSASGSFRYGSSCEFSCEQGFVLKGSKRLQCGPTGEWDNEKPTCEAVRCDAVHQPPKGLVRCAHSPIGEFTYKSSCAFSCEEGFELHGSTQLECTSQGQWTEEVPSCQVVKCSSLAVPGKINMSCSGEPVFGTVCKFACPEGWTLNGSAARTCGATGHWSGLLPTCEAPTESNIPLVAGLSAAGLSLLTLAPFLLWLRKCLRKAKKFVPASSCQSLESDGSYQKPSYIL
UniProt P28702: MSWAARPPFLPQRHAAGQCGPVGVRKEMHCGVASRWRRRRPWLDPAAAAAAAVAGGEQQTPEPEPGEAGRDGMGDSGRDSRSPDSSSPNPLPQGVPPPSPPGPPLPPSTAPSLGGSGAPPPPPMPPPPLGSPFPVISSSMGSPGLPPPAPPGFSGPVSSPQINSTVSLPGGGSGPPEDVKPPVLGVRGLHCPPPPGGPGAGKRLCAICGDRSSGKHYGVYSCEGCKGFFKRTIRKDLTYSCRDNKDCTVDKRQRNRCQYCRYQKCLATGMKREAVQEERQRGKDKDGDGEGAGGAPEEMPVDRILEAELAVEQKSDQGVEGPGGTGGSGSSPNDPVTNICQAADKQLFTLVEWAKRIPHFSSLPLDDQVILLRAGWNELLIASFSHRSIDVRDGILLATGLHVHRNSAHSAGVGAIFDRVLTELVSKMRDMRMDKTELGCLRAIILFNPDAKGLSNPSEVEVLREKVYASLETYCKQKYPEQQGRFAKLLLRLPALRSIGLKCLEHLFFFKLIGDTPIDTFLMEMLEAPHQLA

Key:
[1] = target: Nuclear receptor subfamily 1 group I member 2 (Homo sapiens) (UniProt O75469); assay: ATG_PXR_TRANS: Attagene TRANS-FACTORIAL HepG2 Assay for human Pregnane X Receptor (PXR) (AID 2283008)
Method in brief: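 Trans-factorial format: exogenous NR-Gal4 fusion activity, not endogenous factor, in transfected human HepG2 liver cells. After 24 h dosing, RNA isolated, reverse-transcribed, amplified and resolved by capillary electrophoresis; induction scored versus DMSO.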

[2] = target: human RAR-related Orphan Receptor beta (RORb), RORB (gene 6096) (UniProt Q92753); assay: ATG_RORb_TRANS: Attagene TRANS-FACTORIAL HepG2 Assay for human RAR-related Orphan Receptor beta (RORb) (AID 2283010)
Method in brief: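 HepG2, transient MRTU transfection (GAL4-UAS reporters, exogenous NR-Gal4 chimeras); 24 h compound exposure; total RNA → RT-PCR → 6-FAM primer extension → HpaI digest → CE fluorescence. Positive direction vs DMSO baseline.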

[3] = read-out: Interleukin-1 alpha (IL1a), IL1A (gene 3552); assay: BSK_BE3C_IL1a: BioMAP Diversity Plus: BE3C Assay for Interleukin-1 alpha (IL1a) Biomarker Activity (AID 2283016; active = hit-call score of the fitted dose curve at least 0.9, where 1 is the maximum; inactive = score below 0.9); details: actives raise or lower the signal; primary human bronchial epithelial cells
Method in brief: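 ELISA read-out of IL-1a from human lung bronchial epithelial primary cells, 24 h post-dose. Gain or loss of signal fitted relative to DMSO negative control.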

[4] = target: human RAR-related Orphan Receptor gamma (RORg), RORC (gene 6097) (UniProt P51449); assay: ATG_RORg_TRANS: Attagene TRANS-FACTORIAL HepG2 Assay for human RAR-related Orphan Receptor gamma (RORg) (AID 2283011)
Method in brief: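 Activity is scored as increase in GAL4-UAS reporter mRNA over DMSO, detected by fluorescent RT-PCR and capillary electrophoresis in HepG2 cells transiently expressing a RORg-Gal4 chimera, 24 h after dosing.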

[5] = target: Retinoic acid receptor RXR-alpha (Homo sapiens) (UniProt P19793); assay: ATG_RXRa_TRANS: Attagene TRANS-FACTORIAL HepG2 Assay for human Retinoid X Receptor alpha (RXRa) (AID 2283012)
Method in brief: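 Read-out: fluorescent reporter-transcript fragments quantified by capillary electrophoresis after RT-PCR. Transiently transfected HepG2 cells carrying GAL4-UAS reporters and NR-GAL4 chimeras were exposed to chemical for 24 h; activity scored as increase over DMSO.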

[6] = target: human Thyroid Receptor alpha (THRa1), THRA (gene 7067) (UniProt P10827); assay: ATG_THRa1_TRANS: Attagene TRANS-FACTORIAL HepG2 Assay for human Thyroid Receptor alpha (THRa1) (AID 2283014)
Method: ATG_TRANS is a cell-based, multiplexed-readout assay that uses HepG2, a human liver cell line, with measurements taken at 24 hours after chemical dosing in a 24-well plate.ATG_THRa1_TRANS is one of 30 assay component(s) measured or calculated from the ATG_TRANS assay. It is designed to make measurements of mRNA induction, a form of inducible reporter, as detected with fluorescence intensity signals by Reverse transcription polymerase chain reaction (RT-PCR) and Capillary electrophoresis technology.Data from the assay component ATG_THRa1_TRANS was analyzed into 1 assay endpoint. This assay endpoint, ATG_THRa1_TRANS, was analyzed in the positive analysis fitting direction relative to DMSO as the negative control and baseline of activity. Using a type of inducible reporter, measures of mRNA for gain-of-signal activity can be used to understand the reporter gene at the transcription factor-level as they relate to the gene THRA. Furthermore, this assay endpoint can be referred to as a primary readout, because this assay has produced multiple assay endpoints where this one serves a reporter gene function. To generalize the intended target to other relatable targets, this assay endpoint is annotated to the nuclear receptor intended target family, where the subfamily is non-steroidal.
Human liver HepG2 cells are transiently transfected with multiple reporter transcription units (MRTUs) in 6-well plates using FuGene 6 reagent (Roche; 3 ml FuGene/1 mg DNA). The MRTU constructs are regulated by a cis-regulating element (promoter). […] A major difference between the CIS and TRANS system is that in CIS activities of endogenous TFs are measured, whereas the TRANS assay evaluates changes in activities of exogenous, chimeric NR-Gal4 proteins. […] At the end of 24 hour incubation, total RNA was isolated using TriZol reagent (Invitrogen). The isolated RNA is then reverse-transcribed using oligo(dT) primer and Mo-MLV reverse transcriptase (Invitrogen) with DNAse I (Ambion) treatment for 30 min. The one-tenth of the produced cDNA was amplified by PCR using Taq DNA polymerase (Invitrogen) and two reporter sequence-specific primers. The PCR products were fluorescently labeled by primer extension with 6-arboxyfluorescein (6-FAM) 5'-labeled reporter sequence-specific primer (2 min at 95 C, 20 s at 68 C and 10 min at 72 C) and these products were digested with 5U of HpaI (New England Biolabs) for 2h at 37 C. The fragments were purified using Qiaquick PCR columns (Qiagen), analyzed on an ABI 3130xL genetic analyzer (Applied Biosystems) with peak positions identified by using a set of X-rhodamine (ROX)-labeled MapMarker1000 molecular weight standards (BioVentures). The raw capillary electrophoresis data was processed using Attagraph software (Attagene).

[7] = target: human Retinoic Acid Receptor gamma (RARg), RARG (gene 5916) (UniProt P13631); assay: ATG_RARg_TRANS: Attagene TRANS-FACTORIAL HepG2 Assay for human Retinoic Acid Receptor gamma (RARg) (AID 2283009)
Method in brief: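 Readout: reporter transcript levels via RT-PCR, 6-FAM primer-extension labelling, HpaI digestion and capillary electrophoresis. Cells: HepG2 carrying transfected RARg-GAL4 chimera plus UAS reporter set. Dosing 24 h; DMSO negative control.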

[8] = read-out: E-selectin (Homo sapiens) (UniProt P16581); assay: BSK_3C_Eselectin: BioMAP Diversity Plus: 3C Assay for Eselectin Biomarker Activity (AID 2283015; active = hit-call score of the fitted dose curve at least 0.9, where 1 is the maximum; inactive = score below 0.9); details: actives raise or lower the signal; primary human endothelial cells (HUVEC)
Method in brief: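 Human vascular endothelium from umbilical vein is exposed to test chemicals for 24 h. E-selectin levels are read by ELISA and compared with DMSO controls.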

[9] = read-out: Monocyte Chemoattractant Protein-1 (MCP1), CCL2 (gene 6347); assay: BSK_3C_MCP1: BioMAP Diversity Plus: 3C Assay for Monocyte Chemoattractant Protein-1 (MCP1) Biomarker Activity (AID 2283017; active = hit-call score of the fitted dose curve at least 0.9, where 1 is the maximum; inactive = score below 0.9); details: actives raise or lower the signal; primary human endothelial cells (HUVEC)
Method: BSK_3C is a cell-based, multiplexed-readout assay that uses umbilical vein endothelium, a human vascular primary cell, with measurements taken at 24 hours after chemical dosing in a 96-well plate.BSK_3C_MCP1 is an assay component measured in the BSK_3C assay. It measures MCP-1 antibody related to regulation of gene expression using ELISA technology.Data from the assay component BSK_3C_MCP1 was analyzed into 1 assay endpoint. This assay endpoint, BSK_3C_MCP1, was analyzed with bidirectional fitting relative to DMSO as the negative control and baseline of activity. Using a type of binding reporter, gain or loss-of-signal activity can be used to understand changes in the signaling as they relate to the gene CCL2. Furthermore, this assay endpoint can be referred to as a primary readout, because this assay has produced multiple assay endpoints where this one serves a signaling function. To generalize the intended target to other relatable targets, this assay endpoint is annotated to the cytokine intended target family, where the subfamily is chemotactic factor.
The levels of cell surface (or secreted, indicated by the prefix "s") biomarker endpoints were measured by ELISA. Overt cytotoxicity to cells in confluent adherent cultures (all systems other than the BT system) was assessed by measuring total protein levels using sulforhodamine B (SRB) staining in parallel cultures at the time of biomarker measurements, indicated as SRB endpoints. For proliferation assays for adherent cell types, individual cell types are cultured at sub-confluence and relative cell numbers quantified by SRB staining at time points optimized for each system (48 h: 3C and CASM3C systems; 72 h: BT and HDF3CGF systems; 96 h: SAg system). SRB was performed by staining cells with 0.1% SRB after fixation with 10% TCA and reading wells at 560 nm.Viability and proliferation of PBMC (T cells) was quantified by Alamar Blue reduction for the SAg and BT systems. For PBMC viability (referred to as PBMC Cytotoxicity within the assay endpoint names), cells were plated (75,000/well in a 96-well plate) and then chemical samples added for 1 h before addition of activators, SEB and TSST-1 (20 ng/mL final concentration each). Cells were incubated for 90 h. Then, Alamar Blue (20 uL/well) (Invitrogen, Cat DAL1100) was added for 6 h, and the plates were read with a fluorescence microplate reader at 546/580 nm (excitation/emission). For PBMC proliferation, cells were plated and activated as above but incubated for only 16 h prior to addition of Alamar Blue. Plates were read after 6 h.

[10] = target: human Retinoid X Receptor beta (RXRb), RXRB (gene 6257) (UniProt P28702); assay: ATG_RXRb_TRANS: Attagene TRANS-FACTORIAL HepG2 Assay for human Retinoid X Receptor beta (RXRb) (AID 2283013)
Method in brief: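 Read-out: reporter mRNA induction via RT-PCR plus capillary electrophoresis fluorescence, analysed as signal increase relative to DMSO. Cells were human HepG2, transiently transfected with GAL4-UAS reporter constructs and chimeric receptor-Gal4 fusions, dosed for 24 h.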

Measured: AC50

CC(C)OP(=S)(OC(C)C)SCCNS(=O)(=O)c1ccccc1
inactive: [2] | [3]
active: [1] 354 nM and 457 nM and 335 nM | [3] 10.7 µM

O=[As]c1ccccc1 (configuration not stated)
inactive: [4] | [5] | [6]

O=[N+]([O-])c1ccc([N+](=O)[O-])cc1
not listed: [5] | [6] | [10]
inactive: all other assays above

CN(C(=O)Cc1cccc2occc12)[C@H]1CC[C@@]2(CCCO2)C[C@@H]1N1CCCC1
active: [1] 27.2 µM
inactive: [7] | [10] | [8] | [3] | [9]

O=C(Cl)OCCOC(=O)Cl
inactive: [7] | [4] | [5]

O=P(Cl)(Oc1ccccc1)Oc1ccccc1
inactive: [1] | [5] | [6]

O=C(Cl)Oc1ccccc1
inactive: all assays above

CCCCO[P+](=O)OCCCC
inactive: [1] | [4] | [5] | [10]

ClP(Cl)c1ccccc1
inactive: [5] | [10]

O=[p+]1oc2ccccc2c2ccccc21 (configuration not stated)
inactive: [1] | [2] | [6]

CC(C)CCCCCCCOP(OCCCCCCCC(C)C)Oc1ccccc1
active: [1] 1.22 µM
inactive: [7] | [5] | [10] | [6]

O=C1C2CC=CCC2C(=O)N1SC(Cl)(Cl)C(Cl)Cl (configuration not stated)
inactive: [1] | [7] | [2] | [5] | [6]
active: [8] 13.5 µM | [9] 14.4 µM

O=[P+](Oc1ccccc1)Oc1ccccc1
inactive: [1] | [7] | [2] | [5] | [6]
